The assay addresses CX3CR1 nucleosome (human core histones, wild type) (human) (UniProt P04908). As to the kind of experiment: native gel or EMSA; 0.5 μM nucleosome mixed with purified protein at different concentrations, 30 min, room temperature, 20 mM HEPES pH 7.3, 150 mM NaCl, 0.5 mM TCEP; 4% or 5% acrylamide gel in 0.2 x TBE at 4 °C; apparent Kd from a fit to the Hill equation. A general note: A gel shift assay detects complexes by their altered migration in electrophoresis.

As for “PU.1 ETS Q218H (^ETS-Q218HPU.1) (from UniProt P17433 165-272) (domain or fragment)”, the fold reduction of the binding affinity against ^ETSPU.1 on the nucleosome with wild-type H2A was 2 fold.
